The text below walks through data of PubChem BioAssay AID2014 (Sanford-Burnham Center for Chemical Genomics, 2009).

Amino acid sequences for entries named in this document (tags omitted).
UniProt P11940, whole entry: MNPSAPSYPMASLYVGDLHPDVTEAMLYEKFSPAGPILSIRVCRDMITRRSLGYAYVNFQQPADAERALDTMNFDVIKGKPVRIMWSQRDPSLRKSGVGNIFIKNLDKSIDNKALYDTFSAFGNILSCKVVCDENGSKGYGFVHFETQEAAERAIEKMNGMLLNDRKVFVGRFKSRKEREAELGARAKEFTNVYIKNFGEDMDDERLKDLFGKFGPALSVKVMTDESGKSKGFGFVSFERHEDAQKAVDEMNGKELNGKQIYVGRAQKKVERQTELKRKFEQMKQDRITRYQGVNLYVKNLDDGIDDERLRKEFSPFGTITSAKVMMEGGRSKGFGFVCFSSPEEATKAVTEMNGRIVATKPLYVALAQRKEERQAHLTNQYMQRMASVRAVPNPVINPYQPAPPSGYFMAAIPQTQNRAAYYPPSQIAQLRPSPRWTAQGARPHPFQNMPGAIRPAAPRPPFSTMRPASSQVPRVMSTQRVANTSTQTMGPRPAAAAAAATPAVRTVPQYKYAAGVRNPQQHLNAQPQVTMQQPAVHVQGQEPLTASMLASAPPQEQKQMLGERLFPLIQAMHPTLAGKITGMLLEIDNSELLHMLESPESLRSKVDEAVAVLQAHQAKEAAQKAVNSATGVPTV

This is a selection; strong and weak results do not stand in their true shares. Some tests of the compounds listed are not included; inactive here does not mean inactive elsewhere. The source made the active and inactive calls. No rule for the calls is given here.

The assay concerns the target Polyadenylate-binding protein 1 (Homo sapiens) (UniProt P11940). Put plainly: PABP poly(A) RNA binding inhibitors, primary screen, biochemical, fluorescence polarization, uHTS (AID 2014). As to conditions: at 35 µM, stronger effect = higher value. Background: Polarisation of emitted light reports the rotation of a fluorescent probe.
Broadly, the inhibition is the change of the read-out against control, counted positive when it falls. As for `C=CCN1CCN(CCOC(=O)C(O)(c2ccccc2)c2ccccc2)CC1`, the inhibition is inactive: 14%. As to `O=C(NCC1(N2CCCCC2)CCCCC1)c1cc(F)c(F)cc1Cl`, the inhibition is inactive: 5.8%. `COc1ccc(C(=O)NCC2(N(C)C)CCCCC2)cc1`: the inhibition is inactive: 4.2%. Consider `Cc1cc(C(=O)NCC2(N3CCCCC3)CCCCC2)ccc1[N+](=O)[O-]`, for which the inhibition was inactive: -2.9%. For `CCN1CCCC(OC(=O)C2(O)c3ccccc3C=Cc3ccccc32)C1` (centres undefined), the inhibition was inactive: 27.2%. Then `O=C(NCC1(N2CCCCC2)CCCCC1)c1cccc(Br)c1`, with inactive: -0.4%; and `Cc1ccccc1C(=O)NCC1(N2CCCCC2)CCCCC1`, with inactive: -8.9%. Under `CN(C)C1CCCC1OC(=O)C(O)(c1ccccc1)c1ccccc1` (centres undefined) stands inactive: -14.8%; under `CN(C)c1ccc(C(=O)NCC2(N(C)C)CCCCC2)cc1`, inactive: -21.4%; under `CCN(CC)CC(C)C(C)OC(=O)C(O)(c1ccccc1)c1ccccc1` (centres undefined), inactive: -1.4%.

For the molecule `COc1cc(SC)ccc1C(=O)NCC1(N(C)C)CCCCC1`, the inhibition was inactive: 0.4%. Then `CC(C)N1C(=O)CC2(CCN(CCOC(=O)C(O)(c3ccccc3)c3ccccc3)CC2)C1=O`, with inactive: -0.5%; and `Cc1ccc(C(=O)NCC2(N3CCCCC3)CCCCC2)cc1`, with inactive: 3.5%; and `O=C(NCC1(N2CCCCC2)CCCCC1)c1cc([N+](=O)[O-])ccc1Cl`, with inactive: -9.3%.

Turning to `CN1[C@@H]2CC[C@H]1CC(OC(=O)C(O)(c1ccccc1)c1ccccc1)C2` (some centres undefined), the inhibition is inactive: 2.5%. Under `COc1ccc(Br)c(C(=O)NCC2(N3CCCCC3)CCCCC2)c1` stands inactive: -3.9%. In the case of `CC(C)Oc1ccc(C(=O)NCC2(N(C)C)CCCCC2)cc1`, the inhibition is inactive: 3.8%. Consider `CN(C)c1cccc(C(=O)NCC2(N(C)C)CCCCC2)c1`, for which the inhibition is inactive: 7.5%. Under `O=C(OC1CN2CCC1CC2)C(CO)(c1ccccc1)c1ccccc1` (centres undefined) stands inactive: 1.5%; under `COc1cccc(C(=O)NCC2(N3CCCCC3)CCCCC2)c1`, inactive: -8.8%; under `COc1ccc(Cl)cc1C(=O)NCC1(N(C)C)CCCCC1`, inactive: 0.8%. Under `O=C(NCC1(N2CCCCC2)CCCCC1)c1cccc(Cl)c1` stands inactive: 9.2%. Then `CN(C)C1(CNC(=O)c2ccc(Br)cc2)CCCCC1`, with inactive: 2.8%; and `COc1cc(C(=O)NCC2(N(C)C)CCCCC2)c([N+](=O)[O-])cc1OC`, with inactive: 8.5%.
